Results on one substance are retold here after publication PMC3604701.

In general, Kd refers to a measure of binding affinity in units of concentration. Low values mean a tighter complex, high ones a looser complex. One may read the koff as a measure of how fast the partners let go of each other. A lower koff goes with slow dissociation. A word on the kon: it is a measure of how fast the partners come together. Low readings indicate slow association, high ones fast association.

The assay deals with CoREST^286–482 (linker region and SANT2 domain). Briefly: SPR. A general note: SPR reads the build-up and loss of mass on a sensor chip optically.

As for “LSD1 (residues 151–852), lysine-specific demethylase 1 (from UniProt O60341 151-852) (domain or fragment)”, the Kd turned out to be 1.4 nM, the koff was 7.78e-05 s⁻¹ and the kon stood at 56300 M⁻¹ s⁻¹.
